Earlier results on one molecule are cited in publication PMC10091413, “Modeling the Orthosteric Binding Site of the G Protein-Coupled Odorant Receptor OR5K1” (Journal of Chemical Information and Modeling, 2023).

One may read the EC50 as the concentration needed to bring the measured effect to its halfway point.

The target of the data set is T1, OR5K1 (Homo sapiens, UniProt Q8NHB7).
T1 construct: The protein-coding region of human OR5K1 (NM_001004736.3); IL-6-HaloTag (from expression plasmid pFN210A) (N); expressed in transfected cells; host or cells: HEK-293
T1 sequence (Q8NHB7 1-308): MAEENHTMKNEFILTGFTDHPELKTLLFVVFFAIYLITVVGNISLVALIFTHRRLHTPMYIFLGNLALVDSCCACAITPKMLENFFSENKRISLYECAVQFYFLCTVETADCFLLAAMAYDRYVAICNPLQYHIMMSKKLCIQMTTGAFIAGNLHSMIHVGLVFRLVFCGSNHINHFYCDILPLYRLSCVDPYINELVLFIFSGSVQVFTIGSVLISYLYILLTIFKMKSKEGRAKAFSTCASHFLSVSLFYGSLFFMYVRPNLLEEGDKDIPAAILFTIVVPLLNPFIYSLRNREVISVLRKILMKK
Set-up: method as in PMID 34047404. The conditions noted are these: OR5K1 agonist activity; data retrieved from the literature; cited from earlier work.

On to `COc1nccnc1CC(C)C` [Compound 8, 2-Isobutyl-3-methoxypyrazine], for which the EC50 is 178 ± 24.9 µM.
